Assay results: patent US20250074970A1, “METHOD OF PURIFYING IMMUNOGLOBULIN G AND USES THEREOF” (CSL Behring AG, priority 2021, published 2025)

Test: 2D Difference Gel Electrophoresis (2D DIGE), isoelectric point
Assay type: physicochemical
Conditions: FcXP POROS eluate from clarified CPP, separation between pH 3 and 10
Description: To determine the isoelectric point (pI) of impurities in the eluate compared to IgG, 2D Difference Gel Electrophoresis (2D DIGE) was performed. Samples of purified IgG from clarified CPP (FcXP POROS® eluate) were loaded with Sci5 and Sci3 dye respectively and loaded onto a 2D-SDS-PAGE. Separation of the samples by isoelectric point was performed between pH 3 and 10, followed by separation by size in the presence of SDS under reducing conditions (FIG. 2). IgG was identified to have isoelectric points between pH 7 and 9 in FcXP POROS® eluate samples (FIG. 2). IgM and albumin were identified in the eluate to have a pH of approximately 6.5 (circle in FIG. 2) which is lower than the isoelectric points of IgG.

albumin: impurity identified in the eluate
isoelectric point: approximately 6.5 pH
